The text below walks through data of patent US20110034399A1, “Liquid and Freeze Dried Formulations” (IPSEN PHARMA S.A.S., priority 2008, published 2011).

A short description of the series: Formulation stability of lyophilisate form (HPLC content and purity, pH) on storage. Format: physicochemical. As to the method:
Stabilities measurements were performed by means of High Performance Liquid Chromatographic (HPLC) method. The HPLC system a HPLC Waters Alliance 2695 completed by detection system 2487 Dual λ Absorbance Detector, the column used was a C18, 250×4.6 mm. All details concerning instrumental conditions are gathered in table 6. Elution conditions are gathered in table 7. Two pharmaceutical forms were studied in parallel for stability assays over six months at +5° C. and +25° C./60% RH (relative humidity) and +40° C./75% RH. Measurements were carried out in parallel with (in either wfi, or 5% dextrose as solvent) and a lyophilisate (drug substance on its own) or as second variant of formulations with an additional bulking agents such as mannitol, glycine and trehalose) in WFI. [table] C (% initial) represents the content expressed in percentage at the moment T with regard to the content at the moment Tzero. P (% a/a) represents the purity of the solution expressed by areas (a) ratio in percentage: Table 6 discloses the method and apparatus for measurement of stabilities of the active substance in the formulation disclosed in the present invention. [table] In table 7 are gathered the elution program, the ratio of each eluant (mobile phase) used for measurement of formulation stabilities. [table] […] 760 was calculated by means of the following relation: […]

The structures appear in SMILES notation.

As for `CCCN1CC(CSCC(=O)N[C@H](CCCCNC(=O)CSC[C@@H]2C[C@@H]3c4cccc5[nH]cc(c45)C[C@H]3N(CCC)C2)C(=O)N[C@H]2CSSC[C@@H](C(=O)N[C@H](C(N)=O)[C@@H](C)O)NC(=O)[C@H](CC)NC(=O)[C@H](CCCCN)NC(=O)[C@@H](Cc3c[nH]c4ccccc34)NC(=O)[C@H](Cc3ccc(O)cc3)NC2=O)C[C@@H]2c3cccc4[nH]cc(c34)C[C@H]21` (stereo partly drawn) [BIM23A760, Dop2-DLys(Dop2)-c(Cys-Tyr-DTrp-Lys-Abu-Cys)-Thr-NH2], the pH is, setting by setting: (+25° C./60% RH, T3 Months) 6.12; (+40° C./75% RH, T1 Month) 6.87.
